{
  "source": "ChEMBL document CHEMBL5543159",
  "about": "“Discovery of an Ortho-Substituted N-Cyclopropylmethyl-7α-phenyl-6,14-endoethano-tetrahydronorthebaine Derivative as a Selective and Potent Kappa Opioid Receptor Agonist with Subsided Sedative Effect” (2024)",
  "key": {"[1]": {"experiment": "Toxicity in male ICR mouse assessed as aversion at 5 mg/kg, ip administered for 8 hrs and conditioned for 6 days measured after 24 hrs post conditioning by CPA test", "details": "in vivo, 176 h"}, "[2]": {"experiment": "Toxicity in male ICR mouse assessed as sedation at 5.0 mg/kg, ip measured after 8 hrs by Rotarod test", "details": "in vivo"}, "[3]": {"experiment": "Toxicity in male ICR mouse assessed as aversion at 0.6 mg/kg, ip administered for 8 hrs and conditioned for 6 days measured after 24 hrs post conditioning by CPA test", "details": "in vivo, 176 h"}, "[4]": {"experiment": "Toxicity in male ICR mouse assessed as aversion at 3.8 mg/kg, ip administered for 8 hrs and conditioned for 6 days measured after 24 hrs post conditioning by CPA test", "details": "in vivo, 176 h"}, "[5]": {"experiment": "Toxicity in male ICR mouse assessed as sedation at 0.6 to 15.2 mg/kg, ip measured after 8 hrs by Rotarod test", "details": "in vivo"}, "[6]": {"experiment": "Toxicity in male ICR mouse assessed as change in mouse behaviour at 0.6 mg/kg, ip measured upto 8 hrs by Rotarod test", "details": "in vivo"}, "[7]": {"experiment": "Toxicity in male ICR mouse assessed as decrease in duration of time spent on rotarod at 3.8 mg/kg, ip measured after 4 hrs post administration by Rotarod test", "details": "in vivo"}, "[8]": {"experiment": "Toxicity in male ICR mouse assessed as effect on conditioned plate aversion at 0.6 to 3.8 mg/kg, ip measured after 4 hrs post administration by CPA test", "details": "in vivo"}},
  "data": [
    {"compound": "CN(C(=O)Cc1ccc(Cl)c(Cl)c1)C1CCCCC1N1CCCC1.Cl", "note": "(stereo not drawn)", "values": [
      {"measurement": "Activity", "setting": "[1]", "result": "Toxic"},
      {"measurement": "Activity", "setting": "[2]", "result": "Toxic"}
    ]},
    {"compound": "COc1ccc2c3c1O[C@H]1[C@@]4(OC)CC[C@@]5(C[C@@H]4c4ccccc4NCc4ccccc4)[C@@H](C2)N(CC2CC2)CC[C@]315", "values": [
      {"measurement": "Activity", "setting": "[3]", "result": "Non-Toxic"},
      {"measurement": "Activity", "setting": "[4]", "result": "Non-Toxic"},
      {"measurement": "Activity", "setting": "[5]", "result": "Non-Toxic"},
      {"measurement": "Activity", "setting": "[6]", "result": "Non-Toxic"},
      {"measurement": "Activity", "setting": "[7]", "result": "Toxic"},
      {"measurement": "Activity", "setting": "[8]", "result": "Non-Toxic"}
    ]}
  ]
}
